Values quoted from earlier work, collected in patent US12527768B2, “Compositions comprising an anti-inflammatory drug and a dicer activator for use in the treatment of neuronal diseases” (NeuroSense Therapeutics Ltd., priority 2017, dated 2026).

System: ALS patients
Conditions: clinical trial; cited from earlier work

Nc1nc2ccc(OC(F)(F)F)cc2s1 [Riluzole]
increase in survival in treated participants: 2-3 months
